What all share (test): Fluorescence-based thermal shift assay (FTSA)
Test [1] addresses CA VII (Homo sapiens, UniProt P43166).
For test [2], the target named is CA XII (Homo sapiens, UniProt O43570).
In test [3] the target is CA VA (Homo sapiens, UniProt P35218).

Protein sequences, listed by entry. Tags and fused reporters are not part of them. Lines headed by an entry give the natural chain unless they say otherwise; changes in a name come on top. Residues count along the entry.
UniProt P43166: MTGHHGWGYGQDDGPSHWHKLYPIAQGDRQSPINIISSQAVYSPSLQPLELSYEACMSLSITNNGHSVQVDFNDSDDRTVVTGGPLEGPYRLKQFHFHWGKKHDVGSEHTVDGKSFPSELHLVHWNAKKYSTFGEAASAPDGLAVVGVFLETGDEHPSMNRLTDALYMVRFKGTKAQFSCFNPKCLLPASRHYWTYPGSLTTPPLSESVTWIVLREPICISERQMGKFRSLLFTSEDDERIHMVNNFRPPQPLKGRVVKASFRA
UniProt O43570, 25-354: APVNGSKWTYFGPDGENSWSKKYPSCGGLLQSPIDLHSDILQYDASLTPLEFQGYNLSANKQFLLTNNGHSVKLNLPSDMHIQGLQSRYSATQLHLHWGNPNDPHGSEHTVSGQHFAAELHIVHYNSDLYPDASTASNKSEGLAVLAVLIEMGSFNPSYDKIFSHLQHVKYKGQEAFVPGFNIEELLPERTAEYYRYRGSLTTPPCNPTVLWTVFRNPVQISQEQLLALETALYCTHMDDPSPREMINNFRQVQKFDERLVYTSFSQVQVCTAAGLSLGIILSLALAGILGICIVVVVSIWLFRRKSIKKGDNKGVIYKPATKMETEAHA
UniProt P35218, 39-305: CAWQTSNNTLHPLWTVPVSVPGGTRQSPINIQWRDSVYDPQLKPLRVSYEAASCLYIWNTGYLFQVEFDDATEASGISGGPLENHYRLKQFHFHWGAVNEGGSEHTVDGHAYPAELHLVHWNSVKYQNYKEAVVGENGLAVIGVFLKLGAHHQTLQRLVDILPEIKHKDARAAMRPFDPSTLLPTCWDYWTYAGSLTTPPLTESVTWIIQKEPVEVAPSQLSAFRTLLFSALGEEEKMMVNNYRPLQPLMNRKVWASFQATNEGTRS

The record followed here is publication PMC8224972, “Thiazide and other Cl-benzenesulfonamide-bearing clinical drug affinities for human carbonic anhydrases” (PLoS ONE, 2021).

Each structure is given as a SMILES string.

The Kd is the equilibrium constant for the complex coming apart.

In the case of `NS(=O)(=O)c1cc(Cl)c(Cl)c(S(N)(=O)=O)c1` [Compound 2, Dichlorphenamide], the equilibrium dissociation constant (Kd) in test [1] was determined as 0.46 nM; in test [2], 3.4 nM.

With `NS(=O)(=O)c1cc(C(=O)O)c(NCc2ccco2)cc1Cl` [Compound 15, Furosemide], the Kd in test [3] was more than 200000 nM; in test [1], 620 nM.
